# Results as given in PubChem BioAssay AID602449 (Sanford-Burnham Center for Chemical Genomics, 2012).
# This is a selection; strong and weak results do not stand in their true shares. Calls of active or inactive are those of the source.
# Assay: blockers of Ca2+-induced mitochondrial swelling – biochemical, isolated mouse mitochondria, absorbance, primary screen (AID 602449);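 note: 0% = DMSO wells given calcium and 100% = 1 mM EGTA wells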
# Conditions: 30 min, at 10 µM, stronger effect = higher value
row,Structure (SMILES),inhibition
1,CN1CCC(Nc2cccc(F)c2)CC1,inactive: -1.3%
2,O=C(NCC1(N2CCCCC2)CCCCC1)c1cncc(Br)c1,inactive: -0.2%
3,COc1ccc(C(c2nnnn2C2CCCC2)N2CCC(n3c(=O)[nH]c4ccccc43)CC2)cc1 (stereo not drawn),inactive: 0.4%
4,Cc1ccc(C(=O)NCC2(N(C)C)CCCCC2)o1,inactive: 0.1%
5,CCCOc1ccc(C(=O)NCC2(N(C)C)CCCCC2)cc1OC,inactive: -1.3%
6,CCCCn1nnnc1C(c1ccccc1OC(F)(F)F)N1CCC(n2c(=O)[nH]c3ccccc32)CC1 (stereo not drawn),inactive: 0%
7,CC(C)c1ccc(NC2CCN(C(=O)OC(C)(C)C)CC2)cc1,inactive: 4.2%
8,COc1ccc(CN(CCCl)CCCl)cc1Cl,inactive: 0.2%
9,CN(C)c1cccc(C(=O)NCC2(N3CCCCC3)CCCCC2)c1,inactive: -0.4%
10,COc1cc(OC)c(C(=O)NCC2(N(C)C)CCCCC2)cc1OC,inactive: -0.3%
11,CCC(c1nnnn1C(C)(C)C)N1CCC(n2c(=O)[nH]c3ccccc32)CC1 (stereo not drawn),inactive: -1.4%
12,O=C(NCC1(N2CCOCC2)CCCCC1)c1cc(F)c(F)cc1Cl,inactive: -0.5%
13,CCCCn1nnnc1C(c1ccnc2ccccc12)N1CCC(n2c(=O)[nH]c3ccccc32)CC1 (stereo not drawn),inactive: -1.3%
14,O=C(NCC1(N2CCCCC2)CCCCC1)c1cccc(C(F)(F)F)c1,inactive: 2%
15,O=C(NCC1(N2CCOCC2)CCCCC1)c1cc(=O)[nH]c2ccccc12,inactive: 1.1%
16,COc1cc(C(=O)NCC2(N3CCCCC3)CCCCC2)ccc1OC(F)F,inactive: 0.2%
17,CC(C)c1ccc(C(=O)NCC2(N3CCOCC3)CCCCC2)cc1,inactive: -2.3%
18,COc1ccc(NC2CCN(C(=O)OC(C)(C)C)CC2)cc1,inactive: -1.4%
19,CN1CCN(CCOC(=O)C(O)(c2ccccc2)c2ccccc2)CC1,inactive: 0.6%
20,CCCCn1nnnc1C(c1cccc2ccccc12)N1CCC(n2c(=O)[nH]c3ccccc32)CC1 (stereo not drawn),inactive: -0.6%
21,CC(C)(C)n1nnnc1C(c1ccccc1OC(F)(F)F)N1CCC(n2c(=O)[nH]c3ccccc32)CC1 (stereo not drawn),inactive: 1.9%
22,O=C(NCC1(N2CCCCC2)CCCCC1)c1ccc(OC(F)F)cc1,inactive: -0.4%

row,Structure (SMILES),inhibition
1,CCN1CCC(Nc2ccc(Cl)cc2)CC1,inactive: 0.5%
2,O=c1[nH]c2ccccc2n1C1CCN(C(c2ccccc2OC(F)(F)F)c2nnnn2C2CCCC2)CC1 (stereo not drawn),inactive: -0.1%
3,N#CC1(Nc2ccccc2)CCN(CCc2ccccc2)CC1,inactive: -2.4%
4,O=C(NCC1(N2CCCCC2)CCCCC1)c1cccc([N+](=O)[O-])c1,inactive: -3.3%
5,CSc1ccc(C(=O)NCC2(N3CCOCC3)CCCCC2)cc1,inactive: -1.1%
6,O=c1[nH]c2ccccc2n1C1CCN(C(c2ccccc2)c2nnnn2C2CCCCC2)CC1 (stereo not drawn),inactive: -1.4%
7,CCOC(=O)N1CCC(Nc2cccc(C)c2)CC1,inactive: 0%
8,COc1cc(C(=O)NCC2(N(C)C)CCCCC2)ccc1OC(F)F,inactive: 0%
9,O=c1[nH]c2ccccc2n1C1CCN(C(c2cccc3ccccc23)c2nnnn2C2CCCC2)CC1 (stereo not drawn),inactive: 0.6%
10,CC(C)(C)n1nnnc1C(c1ccccc1)N1CCC(n2c(=O)[nH]c3ccccc32)CC1 (stereo not drawn),inactive: -0.7%
11,O=C1CCN(Cc2ccccc2)CC1,inactive: 0.8%
12,CCOc1ccc(C)cc1CN(CCCl)CCCl,inactive: 2%
13,CCCCOc1ccc(C(=O)NCC2(N3CCOCC3)CCCCC2)cc1,inactive: -1.6%
14,CCCCn1nnnc1C(c1cc2ccccc2o1)N1CCC(n2c(=O)[nH]c3ccccc32)CC1 (stereo not drawn),inactive: -0.6%
15,O=P1(N(CCCl)CCCl)SCCCS1,inactive: 0.1%
16,O=C(NCC1(N2CCCCC2)CCCCC1)c1ccc(F)cc1,inactive: -2.2%
17,CCOC(=O)N1CCC(Nc2ccc(F)cc2)CC1,inactive: 0.2%
18,COc1ccc(NC2CCN(CCc3ccccc3)CC2)c(OC)c1,inactive: -0.2%
19,O=C(NCC1(N2CCCCC2)CCCCC1)c1ccc(Cl)nc1,inactive: -2.1%
20,O=c1[nH]c2ccccc2n1C1CCN(C(c2ccccc2OC(F)(F)F)c2nnnn2C2CCCCC2)CC1 (stereo not drawn),inactive: -0.1%
21,Cc1cc(C)cc(N(C(=O)c2ccccc2)C2CCN(C(=O)OC(C)(C)C)CC2)c1,inactive: 0.1%
22,O=C(NCC1(N2CCOCC2)CCCCC1)c1cc2ccccc2o1,inactive: -3.1%

row,Structure (SMILES),inhibition
1,O=C(NCC1(N2CCCCC2)CCCCC1)c1ccc(Cl)s1,inactive: -2.4%
2,N#CC1(Nc2ccccc2)CCN(Cc2ccccc2)CC1,inactive: 0.7%
3,O=c1[nH]c2ccccc2n1C1CCN(C(c2cc3ccccc3o2)c2nnnn2C2CCCCC2)CC1 (stereo not drawn),inactive: 2.2%
4,O=C(OC1CN2CCC1CC2)C1c2ccccc2Oc2ccccc21 (stereo not drawn),inactive: -1.3%
5,COc1ccc(Cl)cc1C(=O)NCC1(N2CCOCC2)CCCCC1,inactive: -0.1%
6,CCOC(=O)N1CCC(Nc2ccc(OC)cc2)CC1,inactive: 1.8%
7,CCCCn1nnnc1C(c1ccc(OC)cc1)N1CCC(n2c(=O)[nH]c3ccccc32)CC1 (stereo not drawn),inactive: -0.2%
8,COc1ccc(C(=O)NCC2(N3CCCCC3)CCCCC2)cc1,inactive: -2.1%
9,CC(C)(C)OC(=O)N1CCC(N(C(=O)c2ccccc2)c2ccc(F)cc2)CC1,inactive: 1.4%
10,COc1ccc(C(=O)NCC2(N3CCCCC3)CCCCC2)c(OC)c1OC,inactive: -1.1%
11,CCC(c1nnnn1C1CCCC1)N1CCC(n2c(=O)[nH]c3ccccc32)CC1 (stereo not drawn),inactive: -0.3%
12,O=C(NCC1(N2CCCCC2)CCCCC1)c1ccc(=O)[nH]c1,inactive: -1.3%
13,O=C(NCC1(N2CCCCC2)CCCCC1)c1cccs1,inactive: 0.5%
14,CCCCn1nnnc1C(CC)N1CCC(n2c(=O)[nH]c3ccccc32)CC1 (stereo not drawn),inactive: 1.4%
15,CCCCn1nnnc1C(c1cccs1)N1CCC(n2c(=O)[nH]c3ccccc32)CC1 (stereo not drawn),inactive: -1.2%
16,CSc1ccccc1C(=O)NCC1(N2CCCCC2)CCCCC1,inactive: -0.9%
17,Cc1cccc(NC2(C#N)CCN(Cc3ccccc3)CC2)c1,inactive: -1%
18,COc1cccc(C(=O)N(c2cc(C)cc(C)c2)C2CCN(C(=O)OC(C)(C)C)CC2)c1,inactive: -0.4%
19,COc1cc(OC)cc(C(=O)NCC2(N3CCOCC3)CCCCC2)c1,inactive: -0.4%
20,COc1cccc(C(c2nnnn2C2CCCC2)N2CCC(n3c(=O)[nH]c4ccccc43)CC2)c1OC (stereo not drawn),inactive: -1.6%
21,CCC(CO)(C(=O)OC1CN2CCC1CC2)c1ccccc1 (stereo not drawn),inactive: 5%
22,CN1CCC(Nc2ccc(Cl)cc2)CC1,inactive: 0.3%

row,Structure (SMILES),inhibition
1,CCOc1ncccc1C(=O)NCC1(N2CCOCC2)CCCCC1,inactive: -0.6%
2,CN1CCC(Nc2ccc(F)c(Cl)c2)CC1,inactive: 0.7%
3,CC(C)(C)OC(=O)N1CCC(Nc2ccccc2)CC1,inactive: 1.5%
4,NN(c1ccccc1)C1CCN(CCc2ccccc2)CC1,inactive: 1.8%
5,O=C(O)C1(Nc2ccccc2)CCN(Cc2ccccc2)CC1,inactive: -0.5%
6,O=c1[nH]c2ccccc2n1C1CCN(C(c2cc3ccccc3o2)c2nnnn2C2CCCC2)CC1 (stereo not drawn),inactive: 0.9%
7,CCCOc1ccc(C(=O)NCC2(N(C)C)CCCCC2)cc1,inactive: 2%
8,Cc1ccccc1NC1(C#N)CCN(Cc2ccccc2)CC1,inactive: -0.5%
9,CCN1CCC(Nc2cccc(F)c2)CC1,inactive: 0.2%
10,COc1ccc(C(c2nnnn2C2CCCCC2)N2CCC(n3c(=O)[nH]c4ccccc43)CC2)cc1 (stereo not drawn),inactive: -1.8%
11,CC(C)(C)n1nnnc1C(c1ccnc2ccccc12)N1CCC(n2c(=O)[nH]c3ccccc32)CC1 (stereo not drawn),inactive: -1%
12,O=C(NCC1(N2CCCCC2)CCCCC1)c1ccco1,inactive: -0.6%
13,CN(C)c1ccc(C(=O)NCC2(N3CCCCC3)CCCCC2)cc1,inactive: -0.4%
14,Cn1c(=O)[nH]cc(N(CCCl)CCCl)c1=O,inactive: -3.3%
15,COc1cccc(C(c2nnnn2C2CCCCC2)N2CCC(n3c(=O)[nH]c4ccccc43)CC2)c1OC (stereo not drawn),inactive: 2.2%
16,CC(=O)N(c1ccccc1)C1CCNCC1,inactive: 0.3%
17,CCC(c1nnnn1C1CCCCC1)N1CCC(n2c(=O)[nH]c3ccccc32)CC1 (stereo not drawn),inactive: -0.1%
18,COc1cc(OC)cc(C(=O)NCC2(N3CCCCC3)CCCCC2)c1,inactive: 0.6%
19,O=c1[nH]c2ccccc2n1C1CCN(C(c2ccnc3ccccc23)c2nnnn2C2CCCCC2)CC1 (stereo not drawn),inactive: 0%
20,Cc1ccc(C(=O)NCC2(N3CCCCC3)CCCCC2)o1,inactive: -2.4%
21,Fc1ccccc1NC1CCN(Cc2ccccc2)CC1,inactive: -0.6%
22,Cc1ccc(NC2(C#N)CCN(Cc3ccccc3)CC2)cc1,inactive: -0.1%

row,Structure (SMILES),inhibition
1,CN(C)C1(CNC(=O)c2cccc(C#N)c2)CCCCC1,inactive: -1%
2,c1ccc(CN2CCC(Nc3ccccc3)CC2)cc1,inactive: 1.6%
3,Cc1cc(N(CCCl)CCCl)ccc1C=O,inactive: -1.1%
4,O=c1[nH]c2ccccc2n1C1CCN(C(c2ccccc2)c2nnnn2C2CCCC2)CC1 (stereo not drawn),inactive: -0.5%
5,CCCN1CCC(Nc2cc(OC)cc(OC)c2)CC1,inactive: -0.1%
6,CC(C)(C)n1nnnc1C(c1cccc2ccccc12)N1CCC(n2c(=O)[nH]c3ccccc32)CC1 (stereo not drawn),inactive: -3.6%
7,N#Cc1ccc(C(=O)NCC2(N3CCCCC3)CCCCC2)cc1,inactive: -0.8%
8,CC(C)(C)OC(=O)N1CCC(N(C(=O)c2ccccc2)c2ccc(Cl)cc2)CC1,inactive: 0%
9,CCOC(=O)N1CCC(Nc2ccc(C)cc2)CC1,inactive: 0.6%
10,COc1cccc(C(c2nnnn2C(C)(C)C)N2CCC(n3c(=O)[nH]c4ccccc43)CC2)c1OC (stereo not drawn),inactive: -0.3%
11,N/C(=N\O)c1c(N)no[n+]1[O-],inactive: -1.3%
12,O=C(OC1CN2CCC1CC2)C1c2ccccc2C=Cc2ccccc21 (stereo not drawn),inactive: -1.5%
13,O=c1[nH]c2ccccc2n1C1CCN(C(c2cccs2)c2nnnn2C2CCCC2)CC1 (stereo not drawn),inactive: -0.5%
14,CCCCn1nnnc1C(c1cccc(OC)c1OC)N1CCC(n2c(=O)[nH]c3ccccc32)CC1 (stereo not drawn),inactive: -0.4%
15,CCCCn1nnnc1C(c1ccccc1)N1CCC(n2c(=O)[nH]c3ccccc32)CC1 (stereo not drawn),inactive: -2.7%
16,COc1cc(C(=O)NCC2(N3CCOCC3)CCCCC2)cc(OC)c1C,inactive: -0.1%
17,O=C(NCC1(N2CCOCC2)CCCCC1)c1cc(Br)ccc1Cl,inactive: -2.5%
18,O=c1[nH]c2ccccc2n1C1CCN(C(c2cccs2)c2nnnn2C2CCCCC2)CC1 (stereo not drawn),inactive: -1.8%
19,COc1ccc(C(=O)NCC2(N3CCOCC3)CCCCC2)cc1OC,inactive: -2.5%
20,O=c1[nH]c2ccccc2n1C1CCN(C(c2ccnc3ccccc23)c2nnnn2C2CCCC2)CC1 (stereo not drawn),inactive: -0.3%
